From patent US9624164B2, “Phenyl carbamate compounds for use in preventing or treating epilepsy” (Bio-Pharm Solutions Co., Ltd., priority 2011, dated 2017) come the findings set out here.

The series deals with mice. Briefly: Measurement of neurotoxicity (rotarod, Dunham and Miya). The class given is in vivo. The following applies: po, rotarod 6 rpm. As for the experimental part:
The measurement of neurotoxicity of the test compounds was conducted by the method of Dunham and Miya [Dunham, N. W. and Miya, T. S. 1957. A note on a simple apparatus for detecting neurological deficit in rats and mice. J. Am. Pharm. Assoc. (Baltimore) 46: 208-209]. In the method, motor abilities of the test animals can be determined by observing whether the test animals can walk without falling from a rotator, thereby determining the value of neurotoxicity of each compound. […] They were pre-trained on the rotarod (Rotarod; Columbus instrument, rota-max, USA) at 6 rpm for 5 min 24 hr prior to the test. The peak time was determined by administration test material's random dose for 0.5, 1, 2, 4 hour. […] The ratio of TD50 to ED50 (TD50/ED50) is called as a protective index, and useful as a parameter for comparison of pharmaceutical efficacy and neurotoxicity.
In general terms: Falling from the rotarod earlier than controls is read as motor impairment.

Turning to `CC(OC(N)=O)C(O)c1ccccc1Cl` (racemic) [Compound 3, 1-(2-chlorophenyl)-1-hydroxypropyl-2-carbamate], the TD50 (commonly the dose at which the toxic effect under study appears in half of the subjects) is listed as 378.3 mg/kg.

`C[C@H](OC(N)=O)[C@@H](O)c1ccccc1Cl` [Compound 1, 1-(2-chlorophenyl)-(S)-1-hydroxypropyl-(S)-2-carbamate] came in with a TD50 of 218.1 mg/kg.

As for `C[C@@H](OC(N)=O)[C@H](O)c1ccccc1Cl` [Compound 2, 1-(2-chlorophenyl)-(R)-1-hydroxypropyl-(R)-2-carbamate], the TD50 was determined as 372.0 mg/kg.

The compound `C[C@H](OC(N)=O)[C@H](O)c1ccccc1Cl` [Compound 5, 1-(2-chlorophenyl)-(R)-1-hydroxypropyl-(S)-2-carbamate] registered a TD50 of 275.2 mg/kg.

For `C[C@H](OC(N)=O)[C@@H](O)c1c(Cl)cccc1Cl` [Compound 37, 1-(2,6-dichlorophenyl)-(S)-1-hydroxypropyl-(S)-2-carbamate], the TD50 was determined as 131.6 mg/kg.
